Test results published in US7632933B2, “Corticotropin releasing factor 2 receptor agonists” (priority 2002, dated 2009).

Assays:
[1] = target: T1, CRF2R (Homo sapiens, UniProt Q13324); assay: CRF2R agonist activity (EC50 and Emax), called comparative CRF binding; type: cell-based; conditions: CRF2R; for EC50: CRF2R EC50 (nM)
T1 sequence (Q13324 1-411): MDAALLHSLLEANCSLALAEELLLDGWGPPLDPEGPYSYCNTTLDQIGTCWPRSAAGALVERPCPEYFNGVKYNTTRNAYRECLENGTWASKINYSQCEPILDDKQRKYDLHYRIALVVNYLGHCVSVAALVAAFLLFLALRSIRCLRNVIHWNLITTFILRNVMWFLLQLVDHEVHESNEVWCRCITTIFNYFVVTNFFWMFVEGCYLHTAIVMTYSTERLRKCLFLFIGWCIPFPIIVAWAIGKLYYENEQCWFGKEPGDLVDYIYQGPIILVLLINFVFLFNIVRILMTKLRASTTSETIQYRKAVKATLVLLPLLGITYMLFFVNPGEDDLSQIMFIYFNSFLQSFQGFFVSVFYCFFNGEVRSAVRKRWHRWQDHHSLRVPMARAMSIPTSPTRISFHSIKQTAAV
Summary of the method: (§1)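 Agonism measured through CRE-linked reporter expression or lysate cAMP after peptide treatment of CRF1R- or CRF2R-expressing cells, compared against vehicle-treated cells; background from a co-expressed non-target CRFR is subtracted.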

[2] = target: T2, CRF1R (Homo sapiens, UniProt P34998); assay: CRF1R agonist activity (EC50 and Emax), called comparative CRF binding; type: cell-based; conditions: CRF1R; for EC50: CRF1R EC50 (nM)
T2 sequence (P34998 24-415): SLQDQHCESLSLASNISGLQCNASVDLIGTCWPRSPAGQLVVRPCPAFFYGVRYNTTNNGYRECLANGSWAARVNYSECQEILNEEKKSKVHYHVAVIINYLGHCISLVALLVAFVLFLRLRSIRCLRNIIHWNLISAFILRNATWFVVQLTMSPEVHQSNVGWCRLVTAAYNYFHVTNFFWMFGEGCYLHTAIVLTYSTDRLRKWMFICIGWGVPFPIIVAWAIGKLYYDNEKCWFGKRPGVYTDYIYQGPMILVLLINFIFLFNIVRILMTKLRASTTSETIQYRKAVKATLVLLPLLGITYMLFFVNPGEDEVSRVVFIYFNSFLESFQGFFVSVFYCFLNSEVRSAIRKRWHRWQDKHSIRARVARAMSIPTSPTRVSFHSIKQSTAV
Summary of the method: as §1

CC[C@H](C)[C@H](NC(=O)[C@H](CCC(=O)O)NC(=O)[C@@H](NC(=O)[C@H](CCSC)NC(=O)[C@H](CCCCN)NC(=O)[C@H](CCCNC(=N)N)NC(=O)[C@H](CC(C)C)NC(=O)[C@H](CC(C)C)NC(=O)[C@H](Cc1c[nH]cn1)NC(=O)[C@H](CC(C)C)NC(=O)[C@@H]1CCCN1C(=O)[C@H](CC(C)C)NC(=O)[C@H](CC(=O)O)NC(=O)[C@@H](NC(=O)[C@H](CO)NC(=O)[C@@H](NC(=O)[C@@H]1CCCN1C(=O)[C@@H]1CCCN1C(=O)CNC(=O)[C@@H]1CCC(=O)N1)[C@@H](C)CC)[C@@H](C)CC)[C@@H](C)CC)C(=O)N[C@@H](CCC(=O)O)C(=O)N[C@@H](CCCCN)C(=O)N[C@@H](CCC(N)=O)C(=O)N[C@@H](CCC(=O)O)C(=O)N[C@@H](CCCCN)C(=O)N[C@@H](CCC(=O)O)C(=O)N[C@@H](CCCCN)C(=O)N[C@@H](CCC(N)=O)C(=O)N[C@@H](CCC(N)=O)C(=O)N[C@@H](C)C(=O)N[C@H](C(=O)N[C@H](C(=O)N[C@@H](CC(N)=O)C(=O)N[C@@H](C)C(=O)N[C@@H](CCCNC(=N)N)C(=O)N[C@@H](CC(C)C)C(=O)N[C@@H](CC(C)C)C(=O)N[C@@H](CC(=O)O)C(=O)N[C@@H](CCCNC(=N)N)C(=O)N[C@H](C(N)=O)C(C)C)[C@@H](C)O)[C@@H](C)O [compound 239] gave an EC50 [1] of 13.2 nM and an EC50 [2] of 587 nM.
For CC[C@H](C)[C@H](NC(=O)[C@@H](NC(=O)[C@H](CC(=O)O)NC(=O)[C@H](CC(C)C)NC(=O)[C@H](CC(C)C)NC(=O)[C@H](CC(C)C)NC(=O)[C@H](CCCNC(=N)N)NC(=O)[C@H](CC(N)=O)NC(=O)[C@H](CC(N)=O)NC(=O)[C@H](C)NC(=O)[C@H](C)NC(=O)[C@H](CCC(N)=O)NC(=O)[C@H](CCC(N)=O)NC(=O)[C@H](CCCCN)NC(=O)[C@H](CCC(=O)O)NC(=O)[C@H](CCCCN)NC(=O)[C@H](CCC(=O)O)NC(=O)[C@H](CCC(N)=O)NC(=O)[C@H](CCCCN)NC(=O)[C@H](CCC(=O)O)NC(=O)[C@@H](NC(=O)[C@H](CCC(=O)O)NC(=O)[C@@H](NC(=O)[C@H](CCSC)NC(=O)[C@H](CCCCN)NC(=O)[C@H](CCCNC(=N)N)NC(=O)[C@H](CC(C)C)NC(=O)[C@H](CC(C)C)NC(=O)[C@H](C)NC(=O)[C@@H](NC(=O)[C@@H]1CCCN1C(=O)[C@H](CC(C)C)NC(=O)[C@H](CC(=O)O)NC(=O)[C@@H](NC(=O)[C@H](CO)NC(=O)[C@@H](NC(=O)[C@@H]1CCCN1C(=O)[C@@H]1CCCN1C(=O)CNC(=O)[C@@H]1CCC(=O)N1)[C@@H](C)CC)[C@@H](C)CC)[C@@H](C)CC)[C@@H](C)CC)[C@@H](C)CC)[C@@H](C)O)C(N)=O [compound 306], the EC50 [1] was 27.6 nM, the “CRF2R (Emax %)” value ([1]; Emax) was “(100.00) %” and the EC50 [2] was 608 nM. For the same molecule, the “CRF1R (Emax %)” value ([2]; Emax) was “(97.65) %”.
With CC[C@H](C)[C@H](NC(=O)[C@@H](NC(=O)[C@H](CC(=O)O)NC(=O)[C@H](CC(C)C)NC(=O)[C@H](CC(C)C)NC(=O)[C@H](CC(C)C)NC(=O)[C@H](CCCNC(=N)N)NC(=O)[C@H](CC(N)=O)NC(=O)[C@H](CC(N)=O)NC(=O)[C@H](C)NC(=O)[C@H](C)NC(=O)[C@H](CCC(N)=O)NC(=O)[C@H](CCC(N)=O)NC(=O)[C@H](CCCCN)NC(=O)[C@H](CCC(=O)O)NC(=O)[C@H](CCCCN)NC(=O)[C@H](CCC(=O)O)NC(=O)[C@H](CCC(N)=O)NC(=O)[C@H](CCCCN)NC(=O)[C@H](CCC(=O)O)NC(=O)[C@@H](NC(=O)[C@H](CCC(=O)O)NC(=O)[C@@H](NC(=O)[C@H](CCSC)NC(=O)[C@H](CCCCN)NC(=O)[C@H](CCCNC(=N)N)NC(=O)[C@H](CC(C)C)NC(=O)[C@H](CC(C)C)NC(=O)[C@H](Cc1ccc(O)cc1)NC(=O)[C@H](Cc1c[nH]c2ccccc12)NC(=O)[C@@H]1CCCN1C(=O)[C@H](CC(C)C)NC(=O)[C@H](CC(=O)O)NC(=O)[C@@H](NC(=O)[C@H](CO)NC(=O)[C@@H](NC(=O)[C@@H]1CCCN1C(=O)[C@@H]1CCCN1C(=O)CNC(=O)[C@@H]1CCC(=O)N1)[C@@H](C)CC)[C@@H](C)CC)[C@@H](C)CC)[C@@H](C)CC)[C@@H](C)O)C(N)=O [compound 55] the EC50 [1] was 7.95 nM and the EC50 [2] was 11.6 nM.
Work on CC[C@H](C)[C@H](NC(=O)[C@H](CC(N)=O)NC(=O)[C@H](C)NC(=O)[C@H](CC(C)C)NC(=O)[C@H](CC(C)C)NC(=O)[C@H](CC(N)=O)NC(=O)[C@H](C)NC(=O)[C@H](CC(N)=O)NC(=O)[C@H](CC(N)=O)NC(=O)[C@H](C)NC(=O)[C@H](C)NC(=O)[C@H](CCC(N)=O)NC(=O)[C@H](CCC(N)=O)NC(=O)[C@H](CCCCN)NC(=O)[C@H](CCC(=O)O)NC(=O)[C@H](CCCCN)NC(=O)[C@H](CCC(=O)O)NC(=O)[C@H](CCC(N)=O)NC(=O)[C@H](CCCCN)NC(=O)[C@H](CCC(=O)O)NC(=O)[C@@H](NC(=O)[C@H](CCC(=O)O)NC(=O)[C@@H](NC(=O)[C@@H](NC(=O)[C@H](CCCCN)NC(=O)[C@H](CCCNC(=N)N)NC(=O)[C@H](CC(C)C)NC(=O)[C@H](CC(C)C)NC(=O)[C@H](CCC(N)=O)NC(=O)[C@H](Cc1ccccc1)NC(=O)[C@@H]1CCCN1C(=O)[C@H](CC(C)C)NC(=O)[C@H](CC(=O)O)NC(=O)[C@@H](NC(=O)[C@H](CO)NC(=O)[C@@H](NC(=O)[C@@H]1CCCN1C(=O)[C@@H]1CCCN1C(=O)CNC(=O)[C@@H]1CCC(=O)N1)[C@@H](C)CC)[C@@H](C)CC)C(C)C)[C@@H](C)CC)[C@@H](C)CC)C(N)=O [compound 275] yielded an EC50 [1] of 46.6 nM and an EC50 [2] of at least 1000 nM.
For CC[C@H](C)[C@H](NC(=O)[C@@H](NC(=O)[C@H](C)NC(=O)[C@H](CC(C)C)NC(=O)[C@H](CC(C)C)NC(=O)[C@H](CC(C)C)NC(=O)[C@H](C)NC(=O)[C@H](CC(N)=O)NC(=O)[C@H](CC(N)=O)NC(=O)[C@H](C)NC(=O)[C@H](C)NC(=O)[C@H](CCC(N)=O)NC(=O)[C@H](CCC(N)=O)NC(=O)[C@H](CCCCN)NC(=O)[C@H](CCC(=O)O)NC(=O)[C@H](CCCCN)NC(=O)[C@H](CCC(=O)O)NC(=O)[C@H](CCC(N)=O)NC(=O)[C@H](CCCCN)NC(=O)[C@H](CCC(=O)O)NC(=O)[C@@H](NC(=O)[C@H](CCC(=O)O)NC(=O)[C@@H](NC(=O)[C@H](CC(C)C)NC(=O)[C@H](CCCCN)NC(=O)[C@H](CCCNC(=N)N)NC(=O)[C@H](CC(C)C)NC(=O)[C@H](CC(C)C)NC(=O)[C@H](CCC(N)=O)NC(=O)[C@H](Cc1ccccc1)NC(=O)[C@@H]1CCCN1C(=O)[C@H](CC(C)C)NC(=O)[C@H](CC(=O)O)NC(=O)[C@@H](NC(=O)[C@H](CO)NC(=O)[C@@H](NC(=O)[C@@H]1CCCN1C(=O)[C@@H]1CCCN1C(=O)CNC(=O)[C@@H]1CCC(=O)N1)[C@@H](C)CC)[C@@H](C)CC)[C@@H](C)CC)[C@@H](C)CC)[C@@H](C)O)C(N)=O [compound 357], the EC50 [1] was 6.44 nM and the EC50 [2] was 331 nM.
In the case of CC[C@H](C)[C@H](NC(=O)[C@@H](NC(=O)[C@H](C)NC(=O)[C@H](CC(C)C)NC(=O)[C@H](CC(C)C)NC(=O)[C@H](CC(C)C)NC(=O)[C@H](C)NC(=O)[C@H](CC(N)=O)NC(=O)[C@H](CC(N)=O)NC(=O)[C@H](C)NC(=O)[C@H](C)NC(=O)[C@H](CCC(N)=O)NC(=O)[C@H](CCC(N)=O)NC(=O)[C@H](CCCCN)NC(=O)[C@H](CCC(=O)O)NC(=O)[C@H](CCCCN)NC(=O)[C@H](CCC(=O)O)NC(=O)[C@H](CCC(N)=O)NC(=O)[C@H](CCCCN)NC(=O)[C@H](CCC(=O)O)NC(=O)[C@@H](NC(=O)[C@H](CCC(=O)O)NC(=O)[C@@H](NC(=O)[C@@H](NC(=O)[C@H](CCCCN)NC(=O)[C@H](CCCNC(=N)N)NC(=O)[C@H](CC(C)C)NC(=O)[C@H](CC(C)C)NC(=O)[C@H](Cc1ccccc1)NC(=O)[C@@H](NC(=O)[C@@H]1CCCN1C(=O)[C@H](CC(C)C)NC(=O)[C@H](CC(=O)O)NC(=O)[C@@H](NC(=O)[C@H](CO)NC(=O)[C@@H](NC(=O)[C@@H]1CCCN1C(=O)[C@@H]1CCCN1C(=O)CNC(=O)[C@@H]1CCC(=O)N1)[C@@H](C)CC)[C@@H](C)CC)[C@@H](C)CC)C(C)C)[C@@H](C)CC)[C@@H](C)CC)[C@@H](C)O)C(N)=O [compound 280], the EC50 [1] is reported as at least 100 nM and the EC50 [2] is reported as at least 1000 nM.
